## Binding of CDR-mutated scFvs to a peptide of the spike HR2 region

Source: Engelhart et al. 2022 (doi:10.1038/s41597-022-01779-4), MIT Lincoln Laboratory and A-Alpha Bio; data file from the FLAb repository.

Binding partner: SARS-CoV-2 spike HR2 peptide, sequence PDVDLGDISGINAS.

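The library (AAYL52) carries one to three amino acid substitutions per variant, with no insertions or deletions. AlphaSeq pools MATa yeast showing the antibodies with MATalpha yeast showing the peptide. Binding brings cells together so that they mate, and sequencing counts the barcode pairs among the diploids. A regression on co-assayed BCL2-family reference pairs converts the normalised counts of each replicate to an apparent Kd. Each pool was mated in three replicate cultures.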

Each scFv is VH, three GGGGS repeats, VL, as in the parent Ab-95, and differs from it in the CDRs of the light chain only.
VH: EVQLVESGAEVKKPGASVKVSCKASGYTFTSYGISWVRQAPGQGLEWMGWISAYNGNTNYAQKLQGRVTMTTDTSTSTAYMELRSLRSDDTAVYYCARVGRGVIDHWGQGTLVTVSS
VL: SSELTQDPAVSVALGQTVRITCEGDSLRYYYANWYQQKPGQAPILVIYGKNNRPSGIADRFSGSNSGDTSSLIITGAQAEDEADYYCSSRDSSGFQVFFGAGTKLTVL

Each variant is given by its three light chain CDRs, as the data file delimits them; those of the parent are EGDSLRYYYAN, GKNNRPS, SSRDSSGFQVF.
Scale: log10 of Kd in nM, estimated from mating counts; low values are strong binders.
Where no diploid with the target was found in that replicate, the entry reads "nd": below detection, most likely a poor binder, though not proof of it.

For EGDSLRYYYQN, GKENRPS, SSRDSSGFVVF, the assay gave 4.80, 3.87, nd (controls 4 of 9).
For EGDSLRYYYAW, GKNSRPS, SSRDSSGFQVF, the assay gave 3.41, nd, 3.81 (controls 3 of 9).
For EGDSLRYYYAA, GHNNRRS, SSRDSSGFQVF, the assay gave nd, nd, nd (controls 2 of 9).
For EGDSLIYRYAN, GKNNDPS, SSRDSSGFQVF, the assay gave nd, 3.91, nd (controls 3 of 9).
For EGDSLRYMYAN, GKNPRPS, SSRDSWGFQVF, the assay gave 3.19, nd, nd (controls 3 of 9).
For EGDSLRYYYAN, GKYNRPH, SFRDSSGFQVF, the assay gave 3.14, 3.63, nd (controls 2 of 9).
For EGKSLRYYYAN, GKNNRPR, YSRDSSGFQVF, the assay gave 3.42, 3.66, 4.28 (controls 5 of 9).
For EGDSLRYYAEN, GKNNQPS, SSRDSSGFQVF, the assay gave nd, nd, nd (controls 0 of 9).
For EKNSLRYYYAN, GKNNRPS, SMRDSSGFQVF, the assay gave nd, nd, nd (controls 2 of 9).
For EGDSLRYYYYN, GKNKRPS, SSRDISGFQVF, the assay gave nd, nd, 3.21 (controls 1 of 9).
For EGDWLRYYYAN, PKNNRPS, SSRDSQGFQVF, the assay gave 4.82, nd, nd (controls 3 of 9).
For EGDSLRYYYAN, GKNQRPS, SSRDSSNFQVI, the assay gave 2.65, 2.88, 2.95 (controls 4 of 9).
For EGDMLRYYYAN, GKNNRPS, SSRDSSSFQVR, the assay gave nd, nd, nd (controls 2 of 9).
For CGDSLRYYYAN, GKNNRPS, SSHDSSGFPVF, the assay gave 3.48, 3.09, nd (controls 4 of 9).
For EGDSLRYYYAN, GKNNRPR, SSRDSSGFQPF, the assay gave nd, nd, nd (controls 1 of 9).
For EGDSLRYYSTN, GKNHRPS, SSRDSSGFQVF, the assay gave 3.13, 2.90, 3.04 (controls 3 of 9).
For EGDSLRYYYAN, GINNRPS, CSRDSSGFQVF, the assay gave nd, 3.24, 3.04 (controls 3 of 9).
For EGDSLRYYYAN, GKNNRPS, SSNASSGFQVF, the assay gave 3.17, 4.38, 3.99 (controls 1 of 9).
For EGDSLRYYYAN, GKNLRPS, SSRDSSGFQVF, the assay gave 2.06, 2.08, 1.64 (controls 4 of 9).
For NGDSLRYYYAN, GKNNRPS, SSRDSSGSQVR, the assay gave 2.86, 3.10, 3.67 (controls 3 of 9).
For EGASLRYYYAN, GKNERPS, GSRDSSGFQVF, the assay gave 1.86, 1.88, 1.44 (controls 0 of 9).
For EGDSLRYYYAN, GCNNRPS, SDRDSSHFQVF, the assay gave 3.54, nd, nd (controls 2 of 9).
For IGSSLRYYYAN, GKQNRPS, SSRDSSGFQVF, the assay gave nd, nd, nd (controls 0 of 9).
For EGDSLRYYWAN, GKNPRPS, YSRDSSGFQVF, the assay gave nd, nd, nd (controls 1 of 9).
For EGDSLRYYGAN, GKNNRPS, SSRDSSGFQVA, the assay gave 2.66, 2.57, 3.04 (controls 0 of 9).
For EGDSLYYYYAN, GKNNRPS, ASRDSSGTQVF, the assay gave 2.48, 3.23, 3.27 (controls 3 of 9).
For EDDSLRYYYAN, KKMNRPS, SSRDSSGFQVF, the assay gave 3.14, 4.68, nd (controls 3 of 9).
For EGDSLRYYYAN, TKNQRPS, SSRDSSGFQVF, the assay gave nd, 3.53, nd (controls 1 of 9).
For EGVSQRYYYAN, GKNNRPS, STRDSSGFQVF, the assay gave 2.51, 3.34, 2.83 (controls 0 of 9).
For EGDSLRYYYAN, GKWYRPS, SSRWSSGFQVF, the assay gave 3.33, nd, nd (controls 3 of 9).
For EGDSLRHYYAN, GKNNRPS, SSRDSVGFCVF, the assay gave 2.76, 3.10, 2.23 (controls 3 of 9).

The first 3 entries again:

{"CDR-L1": "EGDSLRYYYQN", "CDR-L2": "GKENRPS", "CDR-L3": "SSRDSSGFVVF", "log10 Kd (nM) by replicate": "4.80, 3.87, nd", "signal with controls": "4/9"}
{"CDR-L1": "EGDSLRYYYAW", "CDR-L2": "GKNSRPS", "CDR-L3": "SSRDSSGFQVF", "log10 Kd (nM) by replicate": "3.41, nd, 3.81", "signal with controls": "3/9"}
{"CDR-L1": "EGDSLRYYYAA", "CDR-L2": "GHNNRRS", "CDR-L3": "SSRDSSGFQVF", "log10 Kd (nM) by replicate": "nd, nd, nd", "signal with controls": "2/9"}

Background: pairings of library AAYL52 with three empty control strains gave a value in 28% of cases (median 3.91, 5th percentile 2.90). Values in that range, when seen in few replicates, are hard to tell from nonspecific mating. For each scFv, signals with the empty controls are counted beside the result.